Laboratory results published in ChEMBL document CHEMBL4371007, “Biased Ligands of G Protein-Coupled Receptors (GPCRs): Structure-Functional Selectivity Relationships (SFSRs) and Therapeutic Potential” (J Med Chem, 2018).

By UniProt entry, the sequences of proteins in these tests, tags left out. Where a name states a change or a piece, a line headed by the entry shows the natural chain unless it says otherwise.
UniProt P41146: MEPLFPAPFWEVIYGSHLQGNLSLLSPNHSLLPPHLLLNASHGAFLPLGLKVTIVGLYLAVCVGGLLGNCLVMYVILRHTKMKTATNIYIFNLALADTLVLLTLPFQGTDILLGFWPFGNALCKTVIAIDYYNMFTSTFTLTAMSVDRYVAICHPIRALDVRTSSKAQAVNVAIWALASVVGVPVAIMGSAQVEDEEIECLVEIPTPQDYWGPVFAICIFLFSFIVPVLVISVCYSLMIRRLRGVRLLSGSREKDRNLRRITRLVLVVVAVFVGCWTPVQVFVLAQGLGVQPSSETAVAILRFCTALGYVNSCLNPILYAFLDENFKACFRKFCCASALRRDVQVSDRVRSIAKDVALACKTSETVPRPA
UniProt P41145: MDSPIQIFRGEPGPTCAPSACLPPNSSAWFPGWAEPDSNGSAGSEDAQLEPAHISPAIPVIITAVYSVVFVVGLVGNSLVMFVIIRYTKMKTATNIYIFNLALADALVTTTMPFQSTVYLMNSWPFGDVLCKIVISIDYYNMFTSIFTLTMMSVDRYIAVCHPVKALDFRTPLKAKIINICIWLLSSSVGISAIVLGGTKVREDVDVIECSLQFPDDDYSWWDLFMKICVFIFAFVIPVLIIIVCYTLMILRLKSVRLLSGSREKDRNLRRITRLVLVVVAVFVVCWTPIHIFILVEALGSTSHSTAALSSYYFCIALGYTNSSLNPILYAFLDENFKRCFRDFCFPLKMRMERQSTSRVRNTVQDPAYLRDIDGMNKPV
UniProt P35372, whole entry, looked up: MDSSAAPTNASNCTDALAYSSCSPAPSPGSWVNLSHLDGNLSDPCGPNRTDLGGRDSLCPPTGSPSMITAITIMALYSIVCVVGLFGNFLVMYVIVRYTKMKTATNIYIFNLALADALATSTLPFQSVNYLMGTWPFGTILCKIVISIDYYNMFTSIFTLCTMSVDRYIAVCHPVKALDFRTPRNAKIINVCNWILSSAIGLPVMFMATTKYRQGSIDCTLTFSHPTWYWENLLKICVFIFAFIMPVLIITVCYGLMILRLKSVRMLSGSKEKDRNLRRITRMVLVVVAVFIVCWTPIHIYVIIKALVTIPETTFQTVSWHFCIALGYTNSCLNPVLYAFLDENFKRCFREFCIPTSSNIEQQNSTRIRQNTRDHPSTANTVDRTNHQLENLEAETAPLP

Tests used:
[1] = target: Nociceptin receptor (Homo sapiens) (UniProt P41146); assay: Agonist activity at human NOPR expressed in human BHK cells assessed as increase in beta-arrestin-1 recruitment relative to control
[2] = target: Nociceptin receptor (Homo sapiens) (UniProt P41146); assay: Agonist activity at human NOPR expressed in human BHK cells assessed as increase in beta-arrestin-2 recruitment relative to control
[3] = target: Nociceptin receptor (Homo sapiens) (UniProt P41146); assay: Agonist activity at human NOPR expressed in human BHK cells assessed as inhibition of forskolin-mediated cAMP accumulation after 10 mins by radioimmuno assay relative to control
[4] = target: Kappa-type opioid receptor (Homo sapiens) (UniProt P41145); assay: Agonist activity at human kappa opioid receptor expressed in CHO cell membranes assessed as increase in [35S]-GTPgammaS binding after 1 hrs by TopCount scintillation counting assay relative to control
[5] = target: Kappa-type opioid receptor (Homo sapiens) (UniProt P41145); assay: Agonist activity at human kappa opioid receptor expressed in human U2OS cells co-transfected with GFP and beta-arrestin-2 assessed as increase in beta-arrestin-2 recruitment after 20 mins by Hoechst staining-based assay relative to control
[6] = target: Kappa-type opioid receptor (Homo sapiens) (UniProt P41145); assay: Agonist activity at human kappa opioid receptor expressed in human U2OS cells co-transfected with EFC and beta-arrestin-2 assessed as increase in beta-arrestin-2 recruitment after 90 mins by luminescence assay relative to control
[7] = target: Kappa-type opioid receptor (Homo sapiens) (UniProt P41145); assay: Agonist activity at kappa opioid receptor (unknown origin) assessed as increase in venus-tagged N-terminal beta-arrestin-2 recruitment by BRET assay relative to control
[8] = target: Kappa-type opioid receptor (Homo sapiens) (UniProt P41145); assay: Agonist activity at kappa opioid receptor (unknown origin) expressed in HEK cells co-expressing luciferase based cAMP biosensor assessed as increase in cAMP accumulation after 20 to 30 mins by luciferase reporter gene assay relative to control
[9] = target: Mu-type opioid receptor (Homo sapiens) (UniProt P35372); assay: Agonist activity at human mu opioid receptor expressed in HEK293T cells co-transfected with venus-tagged N-terminal beta-arrestin-2 assessed as increase in beta-arrestin-2 recruitment after 30 mins measured for 1 sec by BRET-based luciferase reporter gene assay relative to control
[10] = target: Mu-type opioid receptor (Homo sapiens) (UniProt P35372); assay: Agonist activity at Gi/o coupled human mu opioid receptor expressed in HEK293T cells co-expressing luciferase based cAMP biosensor and GRK2 assessed as increase in cAMP accumulation after 15 mins by FLIPR assay relative to control

## COC(=O)CN1CN(c2ccccc2)C2(CCN(Cc3cccc4ccccc34)CC2)C1=O
[1]
  Emax: 58%
[2]
  Emax: 29%
[3]
  Emax: 74%

## Cc1ccc(NC(=O)[C@H]2CC=C[C@H]3CCN(Cc4ccccc4F)C(=O)[C@@H]23)cc1C(F)(F)F
[4]
  Emax: 89%

## Ic1ccc(CSc2nnc(-c3ccccn3)n2Cc2cccnc2)cc1
[5]
  Emax: 101%

## Cc1ccc(CSc2nnc(-c3ccccn3)n2Cc2ccco2)cc1C(F)(F)F
[6]
  Emax: 97%
[4]
  Emax: 94%

## COC(=O)[C@@H]1C[C@H](OC(=O)CSC#N)C(=O)[C@H]2[C@@]1(C)CC[C@H]1C(=O)O[C@H](c3ccoc3)C[C@]21C
[7]
  Emax: 126%
[8]
  Emax: 99%

## CC(Cc1ccsc1)NC(=O)NCC(Cc1ccccc1)N(C)C (stereo unspecified)
[9]
  Emax: 9.4%
[10]
  Emax: 88%
